The subject of this assay is Serotonin transporter (5-HTT). Description: ELISA of brain tissue: 5-HTT. The class given is in vivo, rat. The method, then:
Anxiety-like depression rat model is induced by chronic induction of corticosterone. Five-week-old SD male rats (8/cage) randomly received 0.45% soluble Corticosterone suspension in β-cyclodextrin. The number of rats in each group has been supplemented in part 1.2 of the manuscript method. Specifically described as “The rats were randomly divided into 7 groups, 8 rats in each group, a total of 56 rats. […] The model was established by subcutaneous injection of corticosterone (20 mg⋅kg^−1) for 21 consecutive days. […] The control group and model group were given the same volume of normal saline. Solution preparation methods are described in Supplementary Material S1.1.
The contents of Serotonin transporter (5-HTT, JW.RA1057), dopamine (DA, JW.RA1621), γ-aminobutyric acid (GABA, JW.RA1389) and noradrenaline (NA, JW.RA2154) in the hippocampus were measured by ELISA kit. The tissue samples were added to PBS low-temperature homogenate according to 1:10, and the homogenate was centrifuged at 10,000 rpm at 4 °C […] for 10 min. The supernatant was taken to detect the content of the sample.
(In general: ELISA stands for enzyme-linked immunosorbent assay.)

Where a name gives a salt, the structure may show the parent alone.

As to `Fc1ccc([C@@H]2CCNC[C@H]2COc2ccc3c(c2)OCO3)cc1` [Positive, paroxetine hydrochloride, reference compound], the “content of 5-HTT compared with the model group” value (crocin I low-, medium-, high-dose, gardenia extract, positive drug, P < 0.001) is “significantly reduced”. Moreover, for the setting “gardenia extract 0.9 g/kg, positive drug paroxetine hydrochloride 5 mg/kg”, the “5-HTT expression level in brain tissue” value is 256.14 ± 30.37 ng/mL. Also, for the setting “positive drug group”, the “content of 5-HTT compared with the control group” value was “no significant difference”.

Values taken from paper PMC11903455 (Frontiers in Pharmacology, 2025).
